Assay results: patent US20250346584A1, “NOVEL KAPPA OPIOID LIGANDS” (The Scripps Research Institute, priority 2012, published 2025)

The chains behind the UniProt entries cited, without tags or fusion partners.
UniProt P41145, whole entry: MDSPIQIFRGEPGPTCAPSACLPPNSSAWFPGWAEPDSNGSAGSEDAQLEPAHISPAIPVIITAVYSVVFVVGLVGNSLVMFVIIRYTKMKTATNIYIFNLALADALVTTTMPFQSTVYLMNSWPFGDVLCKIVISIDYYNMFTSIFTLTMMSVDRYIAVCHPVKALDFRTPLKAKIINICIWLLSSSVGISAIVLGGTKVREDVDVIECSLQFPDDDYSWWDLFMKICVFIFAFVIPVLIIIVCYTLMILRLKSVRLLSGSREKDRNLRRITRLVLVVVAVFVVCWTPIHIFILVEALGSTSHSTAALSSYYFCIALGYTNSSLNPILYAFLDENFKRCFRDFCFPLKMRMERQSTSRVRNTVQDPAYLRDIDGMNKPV

Target: kappa opioid receptor (OPRK1) (Homo sapiens (Human), UniProt P41145)
Conditions: read-out: IC50 nM (% inhib if other than 50%); antagonist mode vs EC80 U-50488; NA = not active at concentrations up to 10 μM

Q: Which IC50 does the source give for CON=Cc1cc(Br)cnc1N1CC[C@@H](NC2CCCCC2)[C@H](O)C1 here?
A: 206 nM

Q: With CON=Cc1cc(C)cnc1N1CC[C@@H](NC2CCCCC2)[C@@H](OC)C1 (relative stereo) as the molecule, how does the IC50 read?
A: 101 nM

Q: With CCON=Cc1cc(Br)cnc1N1CCC(NC2CCCCC2)C(O)C1 (centres unmarked) as the molecule, how does the IC50 read?
A: 41 nM

Q: How did the IC50 turn out when CON=Cc1cc(Br)cnc1N1CCC(NC2CCCCC2)C(O)C1 (centres unmarked) was run?
A: 31 nM

Q: Which IC50 does the source give for CCON=Cc1cc(Br)cnc1N1CC[C@@H](NC2CCCCC2)[C@H](CO)C1 (relative stereo) here?
A: 45 nM
